Legend:
[1] = system: CC model (CR-IC-028M); assay: Colorectal tumor PDX model CR-IC-028M, subcutaneous tumor growth in mice; format: in vivo, SWISS Nude mice; conditions: Cetuximab 12.5 mg/kg i.p, Trastuzumab 1 mg/kg i.p, Cediranib 6 mg/kg p.o; vs vehicle
Description: Small tumor fragments were subcutaneously implanted in the right flank of 9 CB17 SCID mice. When tumor size reached 500-700 mm^3, tumors were surgically excised and small tumor fragments were subcutaneously implanted in the right flank of 52 recipient SWISS Nude mice.
The treatment started when tumors reached a mean volume of 200-300 mm^3. 40 animals out were randomized according to their individual tumor volume into 4 groups each of 10 animals using Vivo Manager® software (Biosystemes, Couternon, France). A statistical test (analysis of variance) was performed to test for homogeneity between groups.
The first group of the model CR-IC-028M was treated with Cetuximab 12.5 mg/kg (n=10) i.p 1 times per week during 3 weeks, the second with Trastuzumab 1 mg/kg (n=10) i.p twice weekly during 3 weeks, a third group was treated with Cediranib 6 mg/kg (n=10) p.o during 10 days interrupted by 2 days of wash-out after 5 days. The last one, the control group received a mix of the vehicle of Cetuximab and Cediranib. The administration volume for the two models was 10 mL/kg (200 μL/mouse of 20 g) adjusted to the most recent individual body weight of mice.
The tumor volume was calculated by [(a×b^2) 2], where a is the largest tumor diameter and b the perpendicular tumor diameter measured with a caliper every 3 days. […]

[2] = system: CC model (CR-IC-028M); assay: Earlier Cetuximab test in patient-derived colorectal tumor xenografts; format: in vivo, CB17 SCID mice; conditions: Cetuximab 12.5 mg/kg i.p 1 time per week, 3 weeks
Procedure: The predictive value of the calculated score was tested in a colorectal cancer tumor animal model. Small tumor fragments (CR-IC-004M-P4/CR-IC-006M-P3/CR-IC-007M-P4/CR-IC-009M-P3/CR-IC-0013M-P3/CR-IC-0021M-P4/CR-IC-0025M-P3/CR-IC-0028M-P3/CR-IGR-002M-P4/CR-IGR-0023M-P3/CR-IGR-048M-P3/CR-IGR-052C-P4/CR-LRB-008M-P4/CR-LRB-009C-P4/CR-LRB-019C-P5) were subcutaneously implanted in the right flank of CB17 SCID mice. The treatment started when tumors reached a mean volume of 200-300 mm^3. Animals were randomized according to their individual tumor volume into 2 groups using Vivo Manager® software (Biosystemes, Couternon, France). A statistical test (analysis of variance) was performed to test for homogeneity between groups. The first group was treated with Cetuximab 12.5 mg/kg (n=10) i.p 1 times per week during 3 weeks, the second with the vehicle of Cetuximab 0.9% NaCl. The tumor volume was calculated by [(a×b^2) 2], where a is the largest tumor diameter and b the perpendicular tumor diameter measured with a caliper.

Substance	effect on tumor growth / tumor development [1]	response of the model in previous results [2]
Trastuzumab	not efficient in blocking tumor development	
Cetuximab	tumor growth was not affected	resistant

— patent publication US11823799B2, “Method for identifying personalized therapeutic strategies for patients affected with a cancer” (UNIVERSITE DE STRASBOURG, priority 2015, dated 2023)
